Experimental data taken from patent publication US10189807B2, “Tetrahydrothiophene-based GABA aminotransferase inactivators” (Northwestern University, priority 2015, dated 2019).

The chains behind the UniProt entries cited, without tags or fusion partners. Residues count along the entry.
UniProt P80147, 29-500 limits assumed: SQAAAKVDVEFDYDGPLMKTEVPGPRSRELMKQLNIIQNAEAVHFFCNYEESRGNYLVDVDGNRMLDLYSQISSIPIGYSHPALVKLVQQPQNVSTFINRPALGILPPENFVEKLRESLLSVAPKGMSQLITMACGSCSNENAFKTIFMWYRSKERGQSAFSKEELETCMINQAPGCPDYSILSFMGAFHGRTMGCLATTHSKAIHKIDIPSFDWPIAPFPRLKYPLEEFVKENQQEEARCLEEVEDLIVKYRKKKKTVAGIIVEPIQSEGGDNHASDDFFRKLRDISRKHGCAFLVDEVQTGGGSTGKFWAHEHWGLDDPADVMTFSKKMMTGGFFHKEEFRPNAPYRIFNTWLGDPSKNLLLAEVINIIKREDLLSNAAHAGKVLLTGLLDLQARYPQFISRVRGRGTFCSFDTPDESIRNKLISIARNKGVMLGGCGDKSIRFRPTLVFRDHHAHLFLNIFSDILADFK

Tests used:
GABA-AT [1] = target: T1, GABA-AT (Sus scrofa (Pig), UniProt P80147); assay: Time-dependent inhibition (inactivation) of GABA-AT, Kitz and Wilson replot; format: biochemical; conditions: for Efficiency as inactivator of GABA-AT relative to vigabatrin (from kinact/KI) / KI (inactivation): pH 6.5, 25° C.; for KI (inactivation): Kitz and Wilson replot, read-out: Ki (inactivation constant KI)
Procedure: (§1) GABA-AT was isolated and purified from pig brain by a published procedure.
GABA-AT (17.5 μL) was incubated in the presence of varying concentrations of each compound (70 μL final volume) at 25° C. in 50 mM potassium pyrophosphate buffer solution, pH 6.5, containing 5 mM α-ketoglutarate and 1 mM β-mercaptoethanol. […] The relative enzyme activity was determined by normalizing the rate of increasing absorbance at 340 nm to a control. A Kitz and Wilson replot was used to determine the kinetic constants KI and kinact.

GABA-AT [2] = target: T1, GABA-AT; assay: Inhibition of GABA-AT, coupled assay with SSDH; format: biochemical; conditions: pH 8.5, 25° C., from IC50 by Cheng-Prusoff; read-out: Ki (reversible inhibition)
Procedure: as §1
Inhibition constants were determined by monitoring GABA-AT activity in the presence of 0-50 mM concentrations of synthesized analogues using a coupled assay with the enzyme succinic semialdehyde dehydrogenase (SSDH). The assay solution consisted of 10 mM GABA, 5 mM α ketoglutarate, 1 mM NADP^+, 5 mM β-mercaptoethanol, and excess SSDH in 50 mM potassium pyrophosphate buffer, pH 8.5. Enzyme activity was determined by observing the change in absorbance at 340 nm at 25° C. IC50 values were obtained using non-linear regression in GraphPad Prism5 software. Subsequent Ki values were determined using the Cheng-Prusoff relationship. (Yung-Chi, C.; Prusoff, W. H. Biochem. Pharmacol. 1973, 22, 3099-3108.)

`Cl.N[C@@H]1CS[C@@H](C(=O)O)C1` [Compound 18, (2R,4S)-4-Aminotetrahydrothiophene-2-carboxylic acid hydrochloride] was tested. Which “Efficiency as inactivator of GABA-AT relative to vigabatrin (from kinact/KI)” value (GABA-AT [1]) did it give?
Its value is “half as efficient”.

And the KI (inactivation) (GABA-AT [1])?
The KI (inactivation) was 2230 µM.

With `Cl.N[C@@H]1CS[C@H](C(=O)O)C1` [Compound 17, (2S,4S)-4-Aminotetrahydrothiophene-2-carboxylic acid hydrochloride] as the compound, how does the “Inactivation rate constant relative to vigabatrin” value (GABA-AT [1]) read?
Its value is roughly 20 times.

And the “Efficiency as inactivator of GABA-AT relative to vigabatrin (from kinact/KI)” value (GABA-AT [1])?
Its value is “eight”.

What about the KI (inactivation) (GABA-AT [1]) of the same compound?
Its KI (inactivation) is 182 µM.

For `N[C@H]1CS[C@@H](C(=O)O)C1` [Compound 20], which Ki (GABA-AT [2]) is on record?
The Ki was 3400 ± 800 µM.

Which Ki (GABA-AT [2]) does the source give for `N[C@H]1CS[C@H](C(=O)O)C1` [Compound 21] here?
Its Ki is 3300 ± 700 µM.
